In assay [1] the target is T1, Nuclear receptor subfamily 1 group D member 1 (Homo sapiens, UniProt P20393).
T1 sequence (P20393 whole entry): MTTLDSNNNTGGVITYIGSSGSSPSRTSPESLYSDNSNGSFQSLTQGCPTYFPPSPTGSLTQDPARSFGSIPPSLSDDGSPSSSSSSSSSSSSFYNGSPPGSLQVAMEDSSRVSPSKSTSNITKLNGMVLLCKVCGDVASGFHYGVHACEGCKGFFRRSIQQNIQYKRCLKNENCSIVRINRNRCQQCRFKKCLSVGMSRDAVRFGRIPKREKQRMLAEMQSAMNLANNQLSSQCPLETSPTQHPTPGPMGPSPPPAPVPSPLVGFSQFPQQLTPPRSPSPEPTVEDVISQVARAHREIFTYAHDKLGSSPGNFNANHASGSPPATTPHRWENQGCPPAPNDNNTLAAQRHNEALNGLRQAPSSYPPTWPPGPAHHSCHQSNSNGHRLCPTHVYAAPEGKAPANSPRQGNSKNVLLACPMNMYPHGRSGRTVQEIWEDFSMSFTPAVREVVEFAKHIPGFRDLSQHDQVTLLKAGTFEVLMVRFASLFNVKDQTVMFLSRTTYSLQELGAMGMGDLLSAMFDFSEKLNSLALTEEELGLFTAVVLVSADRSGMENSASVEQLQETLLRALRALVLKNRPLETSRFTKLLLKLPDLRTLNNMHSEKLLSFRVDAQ

The chains behind the UniProt entries cited, without tags or fusion partners.
UniProt P31645, whole entry: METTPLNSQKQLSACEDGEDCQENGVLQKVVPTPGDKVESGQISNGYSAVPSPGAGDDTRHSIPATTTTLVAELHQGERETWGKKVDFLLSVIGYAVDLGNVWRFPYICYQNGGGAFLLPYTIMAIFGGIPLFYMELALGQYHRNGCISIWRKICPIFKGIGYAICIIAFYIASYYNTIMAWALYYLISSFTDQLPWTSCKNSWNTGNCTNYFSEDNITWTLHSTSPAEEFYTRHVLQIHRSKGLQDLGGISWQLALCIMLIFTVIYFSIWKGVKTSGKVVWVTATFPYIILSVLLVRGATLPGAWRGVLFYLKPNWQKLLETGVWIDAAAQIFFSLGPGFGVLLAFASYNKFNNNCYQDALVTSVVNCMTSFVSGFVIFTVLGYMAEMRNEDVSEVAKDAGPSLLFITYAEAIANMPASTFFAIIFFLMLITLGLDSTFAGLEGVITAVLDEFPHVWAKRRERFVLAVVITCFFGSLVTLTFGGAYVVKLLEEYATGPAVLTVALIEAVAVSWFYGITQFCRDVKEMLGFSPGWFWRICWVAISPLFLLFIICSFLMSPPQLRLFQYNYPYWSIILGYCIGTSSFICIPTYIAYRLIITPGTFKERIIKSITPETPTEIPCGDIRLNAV
UniProt Q15910, whole entry: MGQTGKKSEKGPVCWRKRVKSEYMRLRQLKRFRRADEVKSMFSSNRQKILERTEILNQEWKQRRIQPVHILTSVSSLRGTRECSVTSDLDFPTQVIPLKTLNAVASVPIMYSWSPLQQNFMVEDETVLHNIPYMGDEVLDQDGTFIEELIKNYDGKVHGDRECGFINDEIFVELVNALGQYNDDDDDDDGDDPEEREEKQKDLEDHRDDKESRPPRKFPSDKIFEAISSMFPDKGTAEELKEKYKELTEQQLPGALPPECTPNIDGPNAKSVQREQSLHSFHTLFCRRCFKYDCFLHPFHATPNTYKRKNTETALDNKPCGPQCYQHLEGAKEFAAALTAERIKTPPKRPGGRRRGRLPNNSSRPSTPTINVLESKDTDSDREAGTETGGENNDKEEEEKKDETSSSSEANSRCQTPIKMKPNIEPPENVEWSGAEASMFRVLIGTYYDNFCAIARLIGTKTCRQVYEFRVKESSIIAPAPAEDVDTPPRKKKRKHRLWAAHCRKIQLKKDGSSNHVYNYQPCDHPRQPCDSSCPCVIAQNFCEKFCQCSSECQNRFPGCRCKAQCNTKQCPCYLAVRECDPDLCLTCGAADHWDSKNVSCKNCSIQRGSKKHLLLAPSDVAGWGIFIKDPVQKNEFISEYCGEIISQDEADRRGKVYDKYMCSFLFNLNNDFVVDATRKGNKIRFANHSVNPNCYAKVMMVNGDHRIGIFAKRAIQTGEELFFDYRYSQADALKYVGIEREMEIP

A further assay addresses T2, Caspase-6 (Homo sapiens, UniProt P55212).
T2 sequence (P55212 whole entry): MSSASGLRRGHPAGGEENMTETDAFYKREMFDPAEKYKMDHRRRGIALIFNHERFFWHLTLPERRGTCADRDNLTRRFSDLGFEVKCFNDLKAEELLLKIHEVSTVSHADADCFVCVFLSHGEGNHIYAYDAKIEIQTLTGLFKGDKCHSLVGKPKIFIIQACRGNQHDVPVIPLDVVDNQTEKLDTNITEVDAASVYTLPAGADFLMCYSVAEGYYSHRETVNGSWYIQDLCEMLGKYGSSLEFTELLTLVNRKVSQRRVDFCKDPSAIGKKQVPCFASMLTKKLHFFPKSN

Assay [2] addresses Sodium-dependent serotonin transporter (Homo sapiens, UniProt P31645). As to the kind of experiment: Affinity On-target Cellular interaction: (Inhibition of neurotransmitter uptake, [3H]5-HT, MDCK-hNWET6 cells) EUB0002556aCl SLC6A4. Format: functional, cell-based.
In assay [3] the target is Histone-lysine N-methyltransferase EZH2 (Homo sapiens, UniProt Q15910). As to the kind of experiment: Affinity On-target Cellular interaction: (Protein substrate methylation in WSU-DLCL2 cells) EUB0002228a EZH2. Format: functional, cell-based, WSUDLCL2.

By EC50 is commonly meant the midpoint of the concentration-response curve. Read a low EC50 as higher potency in that assay. As to `CCOC(=O)N1CCC(CN(Cc2ccc(Cl)cc2)Cc2ccc([N+](=O)[O-])s2)C1` (centres undefined) [SR9009], the EC50 in assay [1] came out at 6000 nM. The term IC50 denotes the concentration that inhibits the measured activity by half. Low readings indicate inhibition by little substance, high ones a need for much substance. On to `CC[C@H](C)[C@H](NC(=O)[C@H](CCC(=O)O)NC(=O)[C@@H](NC(C)=O)C(C)C)C(=O)N[C@H](C=O)CC(=O)O`, for which the 50% inhibitory concentration (IC50) against Caspase-6 is 490 nM.

`CN(C)CC(c1ccc(O)cc1)C1(O)CCCCC1` (centres undefined) returned an IC50 in assay [2] of 47.3 nM.

For the molecule `CCN(c1cc(C#CCN2CCOCC2)cc(C(=O)NCc2c(C)cc(C)[nH]c2=O)c1C)[C@H]1CC[C@H](N(C)CCOC)CC1`, in assay [3], the IC50 was < 100 nM.

Values taken from ChEMBL document CHEMBL5723379, “Affinity On-target Cellular Literature for EUbOPEN Chemogenomic Library” (2024).
